From patent US9051591B2, “Bacterium of enterobacteriaceae family producing L-aspartic acid or L-aspartic acid-derived metabolites and a method for producing L-aspartic acid or L-aspartic acid-derived metabolites” (AJINOMOTO CO., INC., priority 2010, dated 2015)

How the values were obtained:
Assay in all cases: purified protein, by the assay type
[1] = test system: NADH; conditions: other: Oxaloacetate reductive amination
[2] = test system: NADPH; conditions: other: Oxaloacetate reductive amination
[3] = test system: NADP^+
[4] = other: Aspartate oxidative deamination
[5] = other: Aspartic acid oxidative deamination, Michaelis-Menten plots
[6] = other: Aspartic acid oxidative deamination

## Bradyrhizobium japonicum ADH-Bj (Bradyrhizobium diazoefficiens USDA 110)
[1]
  Km: 250 µM
  Vmax: 51 ± 3 µmol/min/mg
  kcat: 26.17 ± 1.5 s⁻¹
  kcat/Km: 103300 M⁻¹ s⁻¹
[2]
  Km: 32 µM
  Vmax: 79 ± 3 µmol/min/mg
  kcat: 40.83 ± 1.67 s⁻¹
  kcat/Km: 1.2833e+06 M⁻¹ s⁻¹
[3]; [4]
  Km: 120 ± 20 µM
  Vmax: 12.1 µmol/min/mg
  kcat: 6.17 s⁻¹
  kcat/Km: 53300 M⁻¹ s⁻¹

## Polaromonas sp. ADH (Polaromonas sp. JS666)
[1]; Hill kinetic equation plots
  Km: 68 ± 5 µM
  Vmax: 80 µmol/min/mg
  kcat: 36.8 s⁻¹
  kcat/Km: 550000 M⁻¹ s⁻¹
[1]; Michaelis-Menten plots
  Km: 190 ± 40 µM
  Vmax: 140 µmol/min/mg
  kcat: 63.3 s⁻¹
  kcat/Km: 350000 M⁻¹ s⁻¹
[2]; Hill kinetic equation plots
  Km: 150 ± 20 µM
  Vmax: 54 µmol/min/mg
  kcat: 24.8 s⁻¹
  kcat/Km: 167000 M⁻¹ s⁻¹
[2]; Michaelis-Menten plots
  Km: 400 ± 60 µM
  Vmax: 97 µmol/min/mg
  kcat: 45 s⁻¹
  kcat/Km: 117000 M⁻¹ s⁻¹
[3]; [5]
  Km: 510 ± 30 µM
  Vmax: 7.5 µmol/min/mg
  kcat: 3.47 s⁻¹
  kcat/Km: 6670 M⁻¹ s⁻¹

## Rhodopseudomonas palustris ADH1-Rp (Rhodopseudomonas palustris HaA2)
[1]
  Km: 4500 µM
  Vmax: 10.1 ± 0.6 µmol/min/mg
  kcat: 5.17 ± 0.333 s⁻¹
  kcat/Km: 1150 ± 183 M⁻¹ s⁻¹
[2]
  Km: 210 µM
  Vmax: 37 µmol/min/mg
  kcat: 19.2 s⁻¹
  kcat/Km: 83300 M⁻¹ s⁻¹
[3]; [6]
  Km: 102 ± 11 µM
  Vmax: 4.57 µmol/min/mg
  kcat: 2.33 s⁻¹
  kcat/Km: 23300 M⁻¹ s⁻¹
